Test results as given in patent publication US20240173295A1, “A STABLE, EMULSION-FORMING LIQUID COMPOSITION COMPRISING AMINO ACIDS” (Brain Luxury Inc., priority 2021, published 2024).

Assay: Chemical stability of liquid composition on storage
Type: physicochemical
Conditions: stored at 6° C. or 22° C.
Experimental: The chemical stability of a disclosed liquid composition stored at 6° C. or 22° C. was evaluated at 2 months and three months. The microbial stability and shelf life was also evaluated. A liquid composition having a pH of about 3.7 was subjected to high pressure processing at 6000 bar for two cycles of 5 minutes.

Vitamin E
amount in liquid composition at 2 Months (chemical stability): 5.6 mg/60 mL
